Binding of CDR-mutated scFvs to a peptide of the spike HR2 region

From the AlphaSeq antibody data of Engelhart et al. 2022 (doi:10.1038/s41597-022-01779-4), copy in the FLAb collection.

All variants were tested on one target, the spike HR2 peptide PDVDLGDISGINAS (SARS-CoV-2).

Parent scFv Ab-91: VL joined to VH by the linker GGGGSGGGGSGGGGS. Changes lie in the heavy chain CDRs alone.
VL: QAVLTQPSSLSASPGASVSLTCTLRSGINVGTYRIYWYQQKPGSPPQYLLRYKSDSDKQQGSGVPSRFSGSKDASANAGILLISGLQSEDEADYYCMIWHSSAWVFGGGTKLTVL
VH: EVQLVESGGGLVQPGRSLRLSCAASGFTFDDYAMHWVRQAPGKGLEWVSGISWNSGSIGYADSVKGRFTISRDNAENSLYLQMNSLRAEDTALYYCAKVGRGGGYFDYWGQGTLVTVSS

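In library AAYL51, one, two or three CDR residues were substituted; doubles and triples were drawn at random. The scFvs were displayed on barcoded MATa yeast, the peptide on MATalpha yeast. Binding brings cells together so that they mate, and sequencing counts the barcode pairs among the diploids. Read counts were normalised to the haploid input and turned into Kd by a linear fit to BCL2-family pairs of known affinity, for each replicate. The assay was run in three technical replicates.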

The parent's heavy chain CDRs are GFTFDDYAMH, GISWNSGSIGYADSVK, VGRGGGYFDY; each variant's own CDRs replace them letter for letter. All variants listed here change R101 of the VH, counted from its first residue. Each Kd is an estimate from the mating assay, the geometric mean of the replicates in which the pair was seen; lower is stronger. Where no diploid with the target was found in any replicate, the entry reads "nd": below detection, most likely a poor binder, though not proof of it. Background: pairings of library AAYL51 with three empty control strains gave a value in 21% of cases (median 34 µM, 5th percentile 1.8 µM). Values in that range, when seen in few replicates, are hard to tell from nonspecific mating. For reference, the parent read 72 nM as the reference entry and 7.5 nM as a member of this library.

With GFTFDDQAMH, GISWNSGSIGYADSVK, VGQGGQYFDY the result was nd (0 of 3 replicates).
With GFTFDNYAMH, GISWNSGSIGYADSVK, VGDGGGYFDY the result was 900 nM (3 of 3 replicates).
With GFTFDDYAMH, GISWNSGSIGYADSVK, VGLGFGYFDY the result was 380 µM (2 of 3 replicates).
With GFTFDDYAMH, GISENSGSIGYADSLK, VGEGGGYFDY the result was 38 µM (2 of 3 replicates).
With GFTFDDYAMH, GISWNSGSIGYADSVK, VGMGTGHFDY the result was 2.1 mM (3 of 3 replicates).
With GFTFDDYAMM, GISWNSGSIGYNDSVK, VGNGGGYFDY the result was 140 µM (2 of 3 replicates).
With GFEFDDYAMH, GISWNSGSQGYADSVK, VGQGGGYFDY the result was 44 nM (3 of 3 replicates).
With GFTFDDYAMH, GISWNSFSIGYADSVK, VGNGGGYFEY the result was 6.1 µM (3 of 3 replicates).
With GFTFDDYAMH, GISWNSGSIGYADSVK, VGGGGGYFDY the result was nd (0 of 3 replicates).
With GFTFDDYAMH, GISWNSGSAGYADSVK, VGEGGGYLDY the result was nd (0 of 3 replicates).
With GFTFDDYAMH, GIEWNSGSIGYADSVK, VGAGGFYFDY the result was nd (0 of 3 replicates).
With GFTFDDYAMH, GISWNSGSIGYADSVK, VGAGGQYFDY the result was 1.2 µM (3 of 3 replicates).
With GFTFDDYAMS, GISWNSGSIGYADSVK, VGNGGGYFSY the result was 29 µM (1 of 3 replicates).
With GFTNDDYAMH, GISWNSGSIGYADSNK, VGGGGGYFDY the result was nd (0 of 3 replicates).
With GFTFDDYAMH, GISWNSGSEGYLDSVK, VGTGGGYFDY the result was 190 µM (1 of 3 replicates).
With GFTFDDYAMH, GISWNSHSIGYADSVK, VELGGGYFDY the result was 5.9 µM (2 of 3 replicates).
With GFTFDDYAMH, GISNNSGSIGYADSVK, VGTGGGYYDY the result was nd (0 of 3 replicates).
With GFTMDDYAMH, GISWNSGSIGYADYVK, VGMGGGYFDY the result was 5.7 µM (2 of 3 replicates).
With GFTFDDYAMW, GISWNSGSIGYADSVK, TGDGGGYFDY the result was nd (0 of 3 replicates).
With GPTFDDYAMH, GISWNSGSIGYADWVK, VGGGGGYFDY the result was nd (0 of 3 replicates).
With GFTFDDYAMH, GISWNSGSIGYALSAK, VGGGGGYFDY the result was nd (0 of 3 replicates).
With GFTFDDYAMH, GISWNSKSIGYADSDK, VGKGGGYFDY the result was nd (0 of 3 replicates).
With GFTFDDYAMH, GIIWNSGSIGYADSVK, VGSGGGYFDY the result was nd (0 of 3 replicates).
With DFTFGDYAMH, GISWNSGSIGYADSVK, VGNGGGYFDY the result was nd (0 of 3 replicates).
With GFTFDLYAMH, GISWNAGSIGYADSVK, VGAGGGYFDY the result was 24 nM (3 of 3 replicates).
With GFTFDDYAMH, GISWNSGSIGYADSQK, VGHGGGYFDY the result was 44 µM (1 of 3 replicates).
With GFTFDDYAMH, GISWNSGSIGYADSVK, VGHGGGYFYR the result was nd (0 of 3 replicates).
With GFTFDDYAMH, GISMNSGSIGYQDSVK, VGTGGGYFDY the result was 80 nM (3 of 3 replicates).
With GFTFDDYAMH, GRSWNSGSIGYALSVK, VGNGGGYFDY the result was nd (0 of 3 replicates).
With GFTFDDYAMH, GISWNSHSIGGADSVK, VGEGGGYFDY the result was 22 µM (2 of 3 replicates).
With GFTGDDYAMH, GISWNSGKIGYADSVK, VGWGGGYFDY the result was 390 µM (2 of 3 replicates).
With GFTFDDYAMH, GISWNSGSIGYAKSVK, VGCGGGYFDY the result was nd (0 of 3 replicates).
With GFTFDDYAMY, GISWNSGSIGYADSVK, VGIGGGYNDY the result was 14 µM (2 of 3 replicates).

The first 5 variants above that were never detected:

With GFTFDDQAMH, GISWNSGSIGYADSVK, VGQGGQYFDY the result was nd (0 of 3 replicates).
With GFTFDDYAMH, GISWNSGSIGYADSVK, VGGGGGYFDY the result was nd (0 of 3 replicates).
With GFTFDDYAMH, GISWNSGSAGYADSVK, VGEGGGYLDY the result was nd (0 of 3 replicates).
With GFTFDDYAMH, GIEWNSGSIGYADSVK, VGAGGFYFDY the result was nd (0 of 3 replicates).
With GFTNDDYAMH, GISWNSGSIGYADSNK, VGGGGGYFDY the result was nd (0 of 3 replicates).